Experimental findings from ChEMBL document CHEMBL1126390, “Reversible modulation of serine protease activity by phosphonate esters” (1992) are described below.

A short description of the test: Ratio of kobs in H2O to the kobs in D2O was determined.

Take `CP(=O)(OCC(=O)c1ccccc1)Oc1ccc([N+](=O)[O-])cc1` (stereo unspecified): the Ratio stood at 1.2.
